In ChEMBL document CHEMBL4428114, “An LP1 analogue, selective MOR agonist with a peculiar pharmacological profile, used to scrutiny the ligand binding domain” (Bioorg Med Chem, 2016) one finds Ki data, which are given here for 1 molecule.

Amino acid sequences for entries named in this document (tags omitted). A change or cut given only in a name is not applied to a line headed by its entry.
UniProt P34975: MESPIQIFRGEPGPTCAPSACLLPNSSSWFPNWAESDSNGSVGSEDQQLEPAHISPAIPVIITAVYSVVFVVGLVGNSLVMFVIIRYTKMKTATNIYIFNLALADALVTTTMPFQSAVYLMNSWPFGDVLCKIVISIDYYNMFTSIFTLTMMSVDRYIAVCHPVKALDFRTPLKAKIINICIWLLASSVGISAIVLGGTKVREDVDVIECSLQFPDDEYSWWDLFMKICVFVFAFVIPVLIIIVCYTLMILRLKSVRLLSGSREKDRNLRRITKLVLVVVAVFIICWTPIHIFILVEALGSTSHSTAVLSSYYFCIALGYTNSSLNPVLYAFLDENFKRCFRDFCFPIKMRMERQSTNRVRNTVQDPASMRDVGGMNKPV

SMILES strings stand for the structures.

For this assay, the target named is Kappa-type opioid receptor (Rattus norvegicus, UniProt P34975). Description: Displacement of [3H]U69593 from rat KOR expressed in CHO cells. It is filed as cell-based. Background: Loss of bound radioactivity is the signal in a displacement assay; it reports binding, not function.

Turning to `CN(C(=O)Cc1ccc(Cl)c(Cl)c1)C1CCCCC1N1CCCC1` (stereo unspecified), the Ki (commonly the equilibrium dissociation constant of an inhibitor or competing ligand from its target) was 0.6 nM.
